# Source: patent US20080269241A1, “BICYCLIC AMINOPROPYL TETRAHYDRO-PYRAZOLO-PYRIDINE MODULATORS OF CATHEPSIN S” (priority 2007, published 2008)
# Protein sequences, listed by entry. Tags and fused reporters are not part of them. Residues count along the entry.
# UniProt P25774, 115-331: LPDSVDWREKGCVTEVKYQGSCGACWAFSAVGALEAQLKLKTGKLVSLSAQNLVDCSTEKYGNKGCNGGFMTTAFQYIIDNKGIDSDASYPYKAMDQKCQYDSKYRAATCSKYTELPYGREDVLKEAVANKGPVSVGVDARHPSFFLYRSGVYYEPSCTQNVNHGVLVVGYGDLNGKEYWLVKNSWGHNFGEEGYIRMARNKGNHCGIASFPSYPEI
# Like-named read-outs stand apart in the source and are kept apart here.
# Target: T1, human cathepsin S (CatS) (Homo sapiens, UniProt P25774)
# T1 construct: made in house; host or cells: baculovirus system (insect cells)
# Test: Recombinant human cathepsin S (CatS) fluorogenic substrate inhibition assay
# Assay type: biochemical
# Procedure: Recombinant human cathepsin S (CatS) was expressed in the baculovirus system and purified in one step with a thiopropyl-sepharose column. […] The assay is run in 150 mM sodium acetate pH 5.0 containing 1.5 mM DTT and 150 mM NaCl. […] Measurements are taken every min for 20 min. The rate is calculated from the slope of the increase in fluorescence and the percent inhibition is calculated from this.
# [1] = recombinant human CatS, 10 μM Z-Valine-Valine-Arginine-AMC, pH 5.0, average of results obtained, read-out: CatS IC50
IC50 [1] [nM],Compound,IC50 [nM]
,"CS(=O)(=O)N1CCc2c(c(-c3ccc(C(F)(F)F)c(CNC(=O)c4c[nH]c5ccccc45)c3)nn2CC(O)CN2CCC(N3CCCC3=O)CC2)C1 (stereo not shown) [Example 117, 1H-Indole-3-carboxylic acid 5-(1-{2-hydroxy-3-[4-(2-oxo-pyrrolidin-1-yl)-piperidin-1-yl]-propyl}-5-methanesulfonyl-4,5,6,7-tetrahydro-1H-pyrazolo[4,3-c]pyridin-3-yl)-2-trifluoromethyl-benzylamide]",130
130,"CN(C)CC(=O)NCc1cc(-c2nn(CC(O)CN3CCC(n4c(=O)n(C)c5ccc(N(C)C)nc54)CC3)c3c2CN(S(C)(=O)=O)CC3)ccc1C(F)(F)F (stereo not shown) [Example 146, 2-Dimethylamino-N-[5-(1-{3-[4-(5-Dimethylamino-1-methyl-2-oxo-1,2-dihydro-imidazo[4,5-b]pyridin-3-yl)-piperidin-1-yl]-2-hydroxy-propyl}-5-methanesulfonyl-4,5,6,7-tetrahydro-1H-pyrazolo[4,3-c]pyridin-3-yl)-2-trifluoromethyl-benzyl]-acetamide]",
130,"CC(C)(C)CC(=O)NCc1cc(-c2nn(CCCN3CCC(N4CCCC4=O)CC3)c3c2CN(S(C)(=O)=O)CC3)ccc1C(F)(F)F [Example 118, N-[5-(5-Methanesulfonyl-1-{3-[4-(2-oxo-pyrrolidin-1-yl)-piperidin-1-yl]-propyl}-4,5,6,7-tetrahydro-1H-pyrazolo[4,3-c]pyridin-3-yl)-2-trifluoromethyl-benzyl]-3,3-dimethyl-butyramide]",

Compound,IC50 [1] [nM],IC50 [nM]
"CS(=O)(=O)N1CCc2c(c(-c3ccc(C(F)(F)F)c(CNC(=O)Oc4ccccc4)c3)nn2CC(O)CN2CCC(N3CCCC3=O)CC2)C1 (stereo not shown) [Example 115, [5-(1-{2-Hydroxy-3-[4-(2-oxo-pyrrolidin-1-yl)-piperidin-1-yl]-propyl}-5-methanesulfonyl-4,5,6,7-tetrahydro-1H-pyrazolo[4,3-c]pyridin-3-yl)-2-trifluoromethyl-benzyl]-carbamic acid phenyl ester]",120,
